A selection: hits, their analogues and other compounds. The true share with any hit is near 1.6%.
Vif imaging: blocks HIV Vif function; HEK293T cells, Vif self-association by quenched fluorescence, imaging, 24 h; inhibition, % at 7.49 µM; 0.35% of 340,000 active; in the data active = inhibition above about 50%, passing the limit was not always enough; inconclusive = no clear call, values can overlap the other calls; inactive = below about 31%
PglD DTNB: inhibitors of Campylobacter jejuni PglD acetyltransferase. AID 602405. inhibition, % at 12.5 µM. purified PglD enzyme, DTNB colorimetric CoA detection. 0.098% of 360,000 active; in the data active = inhibition above about 16%, passing the limit was not always enough; inconclusive = no clear call, values can overlap the other calls
CAL PDZ FP-1: blocks peptide binding to human CAL PDZ domain; Q9HD26; purified CAL PDZ, TMR-peptide fluorescence polarization, 1 h; inhibition, % at 20 µM; 0.02% of 330,000 active; AID 504414;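 active = highest replicate inhibition of at least 40%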;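 also: plate controls were DMSO neutral control wells for no effect and unlabeled competitor peptide control wells for full effect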
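material = purified tagged CAL PDZ domain construct (CerCALP) | compound dosing = 20 µM, one dose | times = 1 h at RT | measured by = fluorescence polarization from S- and P-plane intensities, G-factor corrected | read-out = inhibition from polarization loss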
CAL PDZ FP-2: inhibitors of human CAL PDZ peptide binding; inhibition, % at 24.9 µM; purified CAL PDZ, TMR-peptide fluorescence polarization, 1 h; AID 602252; Q9HD26; 0.92% of 300,000 active;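 active = mean inhibition of at least 30% with at least half of replicates also reaching 30%; inconclusive = no clear call, values can overlap the other calls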;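 also: 0% = DMSO neutral control and 100% = excess unlabeled competitor peptide PRC23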
ARNT-TACC3 inh: disrupts binding between human ARNT and TACC3; Q9Y6A5; AlphaScreen His-ARNT PAS-B/GST-TACC3 binding, luminescence; TACC3 fragment carries E629A point mutation; inhibition, % at 9.99 µM; 0.66% of 390,000 active; AID 623870;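 active = mean inhibition of replicates at least 50% and at least half of replicates each reaching 50%; inconclusive = half or more replicates reach 50% but mean below 50%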;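 also: 0% = complete ARNT plus TACC3 wells and 100% = ARNT alone without TACC3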
UUG fidelity: alters start codon recognition fidelity in yeast; AID 602363; activity score, % at 18.7 µM; 350,000 tested, 0.13% active; S. cerevisiae UUG-firefly luciferase reporter, luminescence/redox ratio;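 active means replicate mean at a twofold rise or more, about +100% in these data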;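 further: firefly luciferase made from a UUG start codon reports start codon fidelity; reporter light over untreated wells divided by growth signal over untreated wells; some hits fall short of that in this replicate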
* hit, by the source's call; i = inactive; ? = inconclusive; / = no result.

SMILES	Vif imaging	PglD DTNB	CAL PDZ FP-1	CAL PDZ FP-2	ARNT-TACC3 inh	UUG fidelity
CCOC(=O)c1c(C)[nH]c(C(=O)OCC(=O)Nc2cc(C)c(Cl)cc2OC)c1C	8	3	0	37*	4	-15
CCN(CC)S(=O)(=O)c1cc(OC)ccc1N=Nc1ccc(O)c2ncccc12	2	-1	0	-3	48*	-21
O=C(CCCc1ccccc1)Nc1ccccc1[N+](=O)[O-]	1	3	-2	18	7	-5
Cc1ccc(NC(=O)CCCc2ccccc2)c([N+](=O)[O-])c1	-8	-6	/	33*	0	-12
CC(OC(=O)/C(C#N)=C/c1ccc(N(C)C)cc1)C(=O)N(C)c1ccccc1 (stereo not drawn)	i	-8	-2	-4	-19	-18
CC(=O)Nc1ccc(NC(=O)C(C)OC(=O)/C(C#N)=C/c2ccc(N(C)C)cc2)cc1 (stereo not drawn)	124*	-15	-1	-4	-3	-27
Cc1ccc(C(=O)NC(=S)NNC(=O)c2ccccc2O)cc1	-21	-2	0	-7	2	-20
O=C(NC(=S)NNC(=O)c1ccccc1O)c1ccc(F)cc1	-3	3	0	4	19*	-1
O=C(NC(=S)NNC(=O)c1ccccc1O)c1ccccc1	-4	-1	1	0	55*	-3
CO[C@H]1CN(C)C(=O)c2cc(NS(=O)(=O)CC(F)(F)F)ccc2OC[C@H](C)N(Cc2ccccn2)C[C@@H]1C	/	-2	/	/	2	-16
C[C@H](CO)N1C[C@H](C)[C@H](CN(C)C(=O)NC2CCCCC2)Oc2ccc(NS(=O)(=O)c3ccccc3)cc2C1=O	/	0	/	/	-4	1
COCC(=O)Nc1ccc2c(c1)C(=O)N(C)C[C@@H](OC)[C@H](C)CN[C@H](C)CO2	/	0	/	/	-5	/
CCN1CCN(C(CNS(=O)(=O)c2ccccc2)c2ccccc2)CC1 (stereo not drawn)	-1	-2	0	43*	-3	-13
O=C1CSC(c2ccccc2[N+](=O)[O-])N1CCc1ccccc1 (stereo not drawn)	-1	/	0	70*	4	/
CC(=O)Nc1ccc(NC(=O)c2ccc(C3SCC(=O)N3CCc3ccccc3)cc2)cc1 (stereo not drawn)	-1	-1	-2	-7	1	-4

Printed as active in ARNT-TACC3 inh, of those listed so far:
SMILES	Vif imaging	PglD DTNB	CAL PDZ FP-1	CAL PDZ FP-2	ARNT-TACC3 inh	UUG fidelity
CCN(CC)S(=O)(=O)c1cc(OC)ccc1N=Nc1ccc(O)c2ncccc12	2	-1	0	-3	48*	-21
O=C(NC(=S)NNC(=O)c1ccccc1O)c1ccc(F)cc1	-3	3	0	4	19*	-1
O=C(NC(=S)NNC(=O)c1ccccc1O)c1ccccc1	-4	-1	1	0	55*	-3

Next section
SMILES	Vif imaging	PglD DTNB	CAL PDZ FP-1	CAL PDZ FP-2	ARNT-TACC3 inh	UUG fidelity
COc1cc2ccnc(C=O)c2cc1OC	1	3	/	/	/	1
COc1ccc(C(N)c2nccc3cc(OC)c(OC)cc23)cc1OC (stereo not drawn)	0	-4	-1	2	72*	-11
Cc1noc(C)c1NC(=O)N(C)C[C@@H]1OCCCC[C@@H](C)Oc2ccc(NC(=O)c3ccccc3)cc2C(=O)N([C@@H](C)CO)C[C@H]1C	/	4	/	/	15	1
Cc1ccnc(NC(=O)c2sc3cc(Cl)ccc3c2Cl)c1	1	/	-1	81*	-9	/
CN(C(=O)c1ccccc1F)C(c1ccccc1)c1ccccc1	0	-3	0	42*	10	-6
C[C@H]1CN([C@@H](C)CO)C(=O)c2cc(NS(=O)(=O)c3ccccc3)ccc2O[C@@H]1CN(C)Cc1ccc(C(=O)O)cc1	/	-2	/	/	-9	23
COc1cccc(-c2cnc3c(c2)C(=O)N([C@H](C)CO)C[C@H](C)[C@H](CN(C)C)O3)c1	/	2	/	/	-2	1
Cc1nnc(NC(=O)CSc2nnc(CNC(=O)C34CC5CC(CC(C5)C3)C4)n2C2CCCCC2)s1	-6	1	-1	2	-1	-5
CC(C)Sc1nnc(CNC(=O)C23CC4CC(CC(C4)C2)C3)n1C1CCCCC1	-31	/	-1	47*	7	/
c1cnc(N2CCN(c3nc4ccccc4n4cnnc34)CC2)nc1	-7	1	-2	/	49*	-6
Cc1nn(C)c(C)c1NC(=S)Nc1ccc(S(=O)(=O)Nc2ncccn2)cc1	5	-2	-1	39*	-4	-16
O=C(NCc1ccc(F)cc1)[C@@H]1[C@@H](CO)[C@@H]2Cn3c(cccc3=O)[C@@H]2N1Cc1ccccn1	/	-1	/	/	7	/
O=C(COC(=O)c1ccc(Cl)nc1)Nc1ccc(N2CCCCC2)cc1	?	1	/	41*	0	-12
O=C(COC(=O)c1ccc(Cl)nc1)Nc1ccc(Cl)cc1	-10	-1	-2	4	1	-13
C=CCNC(=O)c1c(O)c2cccc3c2n(c1=O)CCC3	12	-2	-1	33*	-5	-13

Of the compounds above, these contain two or more sulfur atoms.
SMILES	Vif imaging	PglD DTNB	CAL PDZ FP-1	CAL PDZ FP-2	ARNT-TACC3 inh	UUG fidelity
Cc1nnc(NC(=O)CSc2nnc(CNC(=O)C34CC5CC(CC(C5)C3)C4)n2C2CCCCC2)s1	-6	1	-1	2	-1	-5
Cc1nn(C)c(C)c1NC(=S)Nc1ccc(S(=O)(=O)Nc2ncccn2)cc1	5	-2	-1	39*	-4	-16

Further records follow.
SMILES	Vif imaging	PglD DTNB	CAL PDZ FP-1	CAL PDZ FP-2	ARNT-TACC3 inh	UUG fidelity
C[C@@H]1CCCCO[C@H](CN(C)C(=O)Cc2ccccc2)[C@@H](C)CN([C@H](C)CO)C(=O)c2cc(NC(=O)NC3CCCCC3)ccc2O1	/	1	/	/	-3	12
C[C@H](CO)N1C[C@H](C)[C@H](CN(C)Cc2ccncc2)Oc2c(NS(=O)(=O)c3ccccc3)cccc2C1=O	/	-3	/	/	-12	-17
COc1ccc(-c2c(C)nn3c(NC4CCCC4)cc(C)nc23)cc1OC	7	3	0	0	2	-13
Cc1cc(NC2CCCC2)n2nc(C)c(-c3ccccc3)c2n1	-6	-7	-1	32*	-10	-8
O=C(NCC1(N2CCCCC2)CCCCC1)c1ccc(NS(=O)(=O)c2ccccc2)cc1	6	7	0	-2	active	6
N#Cc1ccc(NC(=O)NN2CCCCCC2)cc1	6	-6	0	82*	-2	-4
O=C(Nc1ccc(Cl)cc1)NN1CCCCCC1	9	1	-1	-5	-4	-5
COc1ccc(CNC(=O)C2CCCN(S(=O)(=O)c3cccc4nsnc34)C2)cc1 (stereo not drawn)	-5	0	-3	-4	-1	-11
COc1ccc(CNC(=O)C2CCN(S(=O)(=O)c3cccc4nsnc34)CC2)cc1	-9	-4	-1	37*	-7	-13
COc1cc(N/N=C/c2ccccc2O)ncn1	-7	1	-5	/	63*	-34
COc1cc(/C=N/Nc2ccccn2)cc(OC)c1O	2	/	-2	-5	66*	/
Cc1noc(C)c1NC(=O)N[C@H]1C=C[C@H](CC(=O)Nc2ccccc2)O[C@H]1CO	/	-1	/	/	-1	3
CC(C)CC#Cc1cnc2c(c1)C(=O)N([C@@H](C)CO)C[C@H](C)[C@H](CN(C)C(=O)c1cnccn1)O2	/	-7	/	/	-3	2
O=C(CSc1ccc2nnc(-c3ccccc3)n2n1)NCc1ccco1	21	-2	-2	-1	1	-12
O=C(CSc1ccc2nnc(-c3ccccn3)n2n1)NCc1ccco1	-3	0	0	/	61*	-24
COc1ccc(/C=N/Nc2nnc(-c3ncc[nH]3)c3ccccc23)cc1	1	-1	-1	/	-3	-8
Oc1ccc2ccccc2c1/C=N/Nc1nnc(-c2ncc[nH]2)c2ccccc12	87*	/	-4	0	-1	-24
